Among the data in ChEMBL document CHEMBL1154119, “Rational design, synthesis and characterization of potent, non-peptidic Smac mimics/XIAP inhibitors as proapoptotic agents for cancer therapy” (Bioorg Med Chem, 2009) are IC50 values, retold here.

The chains behind the UniProt entries cited, without tags or fusion partners.
UniProt P98170, whole entry: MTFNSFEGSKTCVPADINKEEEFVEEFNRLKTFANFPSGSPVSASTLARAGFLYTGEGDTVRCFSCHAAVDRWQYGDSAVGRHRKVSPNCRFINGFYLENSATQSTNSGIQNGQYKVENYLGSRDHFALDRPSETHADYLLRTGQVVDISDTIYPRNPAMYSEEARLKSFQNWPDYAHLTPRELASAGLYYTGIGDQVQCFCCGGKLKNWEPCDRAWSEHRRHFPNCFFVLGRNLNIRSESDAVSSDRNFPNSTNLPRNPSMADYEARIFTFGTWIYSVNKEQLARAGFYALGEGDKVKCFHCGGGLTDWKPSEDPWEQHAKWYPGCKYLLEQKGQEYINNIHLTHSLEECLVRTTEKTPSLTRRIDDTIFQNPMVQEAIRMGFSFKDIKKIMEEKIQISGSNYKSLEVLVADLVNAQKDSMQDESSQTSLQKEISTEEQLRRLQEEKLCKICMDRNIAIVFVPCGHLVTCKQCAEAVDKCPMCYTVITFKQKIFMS

The target in this assay is E3 ubiquitin-protein ligase XIAP (Homo sapiens, UniProt P98170).

For the compound `CC[C@H](N)C(=O)N[C@H]1CCC[C@H]2CC[C@@H](C(=O)NC(c3ccccc3)c3ccccc3)N2C1=O`, the IC50 – broadly, the concentration needed to halve the response being measured – worked out at 360 nM.
